Assay: Stability of ABT in Hμrel coculture
Type: in vitro ADME, human
Conditions: Hμrel co-culture cells, media samples, up to 72 h

Compound: Nn1nnc2ccccc21 [ABT, Aminobenzotriazole]
- concentrations of ABT relative to 0 h (stability): remained stable for 72 h

From paper PMC10949176 (Clinical and Translational Science, 2024)
